## Measured affinities in a library of Ab-95 light chain variants

The measurements come from Engelhart et al. 2022 (doi:10.1038/s41597-022-01779-4) through the FLAb antibody collection.

Target: peptide PDVDLGDISGINAS, taken from heptad repeat 2 (HR2) of SARS-CoV-2 spike.

Parent scFv Ab-95: VH joined to VL by the linker GGGGSGGGGSGGGGS. Changes lie in the light chain CDRs alone.
VH: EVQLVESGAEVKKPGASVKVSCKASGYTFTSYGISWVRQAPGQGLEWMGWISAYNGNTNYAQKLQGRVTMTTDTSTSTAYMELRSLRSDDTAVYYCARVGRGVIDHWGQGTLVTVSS
VL: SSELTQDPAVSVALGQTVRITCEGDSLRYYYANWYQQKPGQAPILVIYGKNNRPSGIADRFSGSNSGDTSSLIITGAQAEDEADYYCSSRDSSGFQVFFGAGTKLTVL

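The library (AAYL52) carries one to three amino acid substitutions per variant, with no insertions or deletions. Affinity was read by AlphaSeq, a pooled yeast mating assay with surface-displayed partners. Binding brings cells together so that they mate, and sequencing counts the barcode pairs among the diploids. Scores were corrected for input abundance and mapped to Kd with protein pairs of known affinity run in the same pool. Each pool was mated in three replicate cultures.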

Substitutions are numbered in sequence along the VL above, starting at 1 (not Kabat). This list gathers variants with a substitution at A32 (VL, numbered from residue 1). Numbers give log10(Kd / nM), so 0 is 1 nM and 3 is 1 µM. Smaller is tighter. Replicates are averaged; those with no signal do not enter the mean. Where no diploid with the target was found in any replicate, the entry reads "nd": below detection, most likely a poor binder, though not proof of it.

Y30V/A32W/S88W: nd (0 of 3 replicates).
A32W/F98Y: 5.47 (1 of 3 replicates).
Y29C/A32S: 3.59 (3 of 3 replicates).
E23D/A32I/S88W: 3.43 (1 of 3 replicates).
G24T/A32C/S92E: 4.55 (1 of 3 replicates).
A32W/R53F/V97C: 3.65 (1 of 3 replicates).
R28W/A32S: 3.27 (3 of 3 replicates).
A32M/P54R/S88P: nd (0 of 3 replicates).
D25M/A32N/S55E: 3.39 (3 of 3 replicates).
D25I/A32C: 2.59 (3 of 3 replicates).
R28S/A32C/R53E: 4.18 (2 of 3 replicates).
A32F/N51I/R53K: 3.65 (1 of 3 replicates).
L27V/A32E/V97K: nd (0 of 3 replicates).
A32T/K50S/R53N: nd (0 of 3 replicates).
A32G/Q96F/F98T: 4.76 (1 of 3 replicates).
A32L/S55P: 3.66 (3 of 3 replicates).
L27Y/A32L/P54L: 2.96 (1 of 3 replicates).
A32K/N51S/S92L: 4.11 (3 of 3 replicates).
A32C/P54G/R90C: 3.76 (2 of 3 replicates).
A32P/N51Q/N52H: 3.02 (3 of 3 replicates).
A32K/N33L/G94N: nd (0 of 3 replicates).
A32D/N52C/D91L: 4.42 (2 of 3 replicates).
A32M/S55P: 3.47 (3 of 3 replicates).
Y29A/A32K/D91P: 4.44 (3 of 3 replicates).
A32D/F95W: nd (0 of 3 replicates).
Y31A/A32Q/V97L: 4.00 (2 of 3 replicates).
A32G/R53H/Q96G: 4.62 (1 of 3 replicates).
Y30C/A32V/R53Q: 4.57 (2 of 3 replicates).
A32P/G94V/F98V: 2.91 (3 of 3 replicates).
A32Q/S88A/S89E: nd (0 of 3 replicates).
A32R/R90W/F95D: 4.32 (2 of 3 replicates).
D25V/A32L/G94F: nd (0 of 3 replicates).
A32T/S93G/G94W: 2.87 (3 of 3 replicates).
A32D/S89Q/D91Y: 4.35 (2 of 3 replicates).
Y30D/A32W/G94Q: 2.99 (1 of 3 replicates).
R28Q/A32T/S88R: 2.79 (3 of 3 replicates).
A32D/S88A/Q96P: 3.59 (2 of 3 replicates).
A32T/R90W/S92C: 5.16 (3 of 3 replicates).
S26P/A32H/N33C: nd (0 of 3 replicates).
G24V/A32N/R90Q: nd (0 of 3 replicates).
Y29S/Y31E/A32M: 1.28 (3 of 3 replicates).
A32L/G49P/R90I: 3.46 (1 of 3 replicates).

7 of these entries, quoted again:

{"changes": "Y31A/A32Q/V97L", "log10 Kd (nM), mean": "4.00", "detected": "2 of 3"}
{"changes": "D25I/A32C", "log10 Kd (nM), mean": "2.59", "detected": "3 of 3"}
{"changes": "R28S/A32C/R53E", "log10 Kd (nM), mean": "4.18", "detected": "2 of 3"}
{"changes": "A32C/P54G/R90C", "log10 Kd (nM), mean": "3.76", "detected": "2 of 3"}
{"changes": "A32W/F98Y", "log10 Kd (nM), mean": "5.47", "detected": "1 of 3"}
{"changes": "A32G/Q96F/F98T", "log10 Kd (nM), mean": "4.76", "detected": "1 of 3"}
{"changes": "A32W/R53F/V97C", "log10 Kd (nM), mean": "3.65", "detected": "1 of 3"}

As a blank, each scFv also met three strains without target: over library AAYL52, 28% of these pairings were detected, typically at 3.91 and seldom below 2.90. In this assay the parent's reference entry averaged 2.31; its copy inside this library read 2.25.